{"sequences": {"note": "Protein sequences, listed by entry. Tags and fused reporters are not part of them.", "UniProt Q9UBB5, whole entry, looked up": "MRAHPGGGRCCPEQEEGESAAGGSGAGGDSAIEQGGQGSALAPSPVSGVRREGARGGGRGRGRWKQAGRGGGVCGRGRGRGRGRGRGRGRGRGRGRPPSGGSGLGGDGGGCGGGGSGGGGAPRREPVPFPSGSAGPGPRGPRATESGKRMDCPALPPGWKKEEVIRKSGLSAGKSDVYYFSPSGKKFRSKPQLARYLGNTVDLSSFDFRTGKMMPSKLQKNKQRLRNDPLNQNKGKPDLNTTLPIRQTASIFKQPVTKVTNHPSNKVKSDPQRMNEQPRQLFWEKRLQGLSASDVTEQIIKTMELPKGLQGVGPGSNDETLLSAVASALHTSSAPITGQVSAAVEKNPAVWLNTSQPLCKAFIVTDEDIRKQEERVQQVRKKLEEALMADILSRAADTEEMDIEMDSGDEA"}, "source": "PubChem BioAssay AID686964", "about": "(The Scripps Research Institute Molecular Screening Center, 2013)", "note": "This is a selection; strong and weak results do not stand in their true shares. Active and inactive are the calls of the source. Cut-off read from the data, not from the text of the source: active = inhibition above about 13%; inactive = the rest."}
{"target": "Methyl-CpG-binding domain protein 2 (Homo sapiens) (UniProt Q9UBB5)", "assay": "MBD2-DBD methyl-oligonucleotide interaction blockers – biochemical, TR-FRET, DNA-binding domain, human, primary screen (AID 686964)", "conditions": "MBD2 binding to methylated oligonucleotide, at 4.4 µM, stronger effect = higher value"}
{"smiles": "Cc1nn(-c2ccccc2)c2c1P(=O)(N1CCOCC1)N(C)C(c1ccccc1)=N2", "note": "(stereo unspecified)", "inhibition": "inactive: -0.61%"}
{"smiles": "CN(C)C1(CNC(=O)c2ccc(S(C)(=O)=O)cc2)CCCCC1", "inhibition": "inactive: -1.08%"}
{"smiles": "CCCC1OP(=O)(Nc2ccccc2)OCC1CC", "note": "(stereo unspecified)", "inhibition": "inactive: 3.27%"}
{"smiles": "O=C(/C=C/c1ccccc1)OC1CN2CCC1CC2", "note": "(stereo unspecified)", "inhibition": "inactive: 2.63%"}
{"smiles": "Cc1ccc(S(=O)(=O)N(CCCN)CCCc2c(C)nc(N)[nH]c2=O)cc1", "inhibition": "inactive: -8.69%"}
{"smiles": "O=P1(Nc2ncccn2)COc2ccccc2OC1", "inhibition": "inactive: -2.48%"}
{"smiles": "Nc1cccc([As](=O)(O)c2ccccc2)c1", "inhibition": "inactive: -4.41%"}
{"smiles": "NS(=O)(=O)c1cccc(NC(=O)COC(=O)C(O)(c2ccccc2)c2ccccc2)c1", "inhibition": "inactive: 1.32%"}
{"smiles": "O=P1(Nc2ccc(Br)cn2)COc2ccccc2OC1", "inhibition": "inactive: 4.02%"}
{"smiles": "O=[As](O)(c1cccs1)c1cccs1", "inhibition": "inactive: 1.91%"}
{"smiles": "Cc1ccc(OCC(=O)OC2CN3CCC2CC3)cc1", "note": "(stereo unspecified)", "inhibition": "inactive: 7.13%"}
{"smiles": "CCOP(=O)(NC(=NC(C)c1ccccc1)NC(C)c1ccccc1)OCC", "note": "(stereo unspecified)", "inhibition": "inactive: -2.53%"}
{"smiles": "CCC1=CC2Cc3nc4ccc(Cl)cc4c(N)c3C(C1)C2", "note": "(stereo unspecified)", "inhibition": "inactive: -2.19%"}
{"smiles": "O=P1(Nc2ccccn2)COc2ccccc2OC1", "inhibition": "inactive: 0.31%"}
{"smiles": "CN(CCCl)Cc1cc(Cl)c(NC2=NCCN2)c(Cl)c1", "inhibition": "inactive: 3.21%"}
{"smiles": "CCOP(=O)(Nc1ccc(C)cn1)OCC", "inhibition": "inactive: 1.57%"}
{"smiles": "CC(C)(C)C(=O)NC(Sc1ncccn1)C(Cl)(Cl)Cl", "note": "(stereo unspecified)", "inhibition": "inactive: 5.06%"}
{"smiles": "Clc1n[nH]nc1-c1nn[nH][15n]1", "inhibition": "inactive: -0.33%"}
{"smiles": "O=P1(N(CCCl)CCCl)NCCC(C(F)(F)F)O1", "note": "(stereo unspecified)", "inhibition": "inactive: 2.16%"}
{"smiles": "COc1ccccc1CNC(=O)COC(=O)C(O)(c1ccccc1)c1ccccc1", "inhibition": "inactive: 1.98%"}
{"smiles": "CN(C(=O)Cc1ccc(Cl)c(Cl)c1)C1CCCC[C@@H]1N1CCCC1", "note": "(stereo partly specified)", "inhibition": "inactive: -0.14%"}
{"smiles": "CN(C(=O)Cc1ccc(Cl)c(Cl)c1)[C@@H]1CCCC[C@H]1N1CCCC1", "inhibition": "inactive: 1.28%"}
{"smiles": "CC(C)/C=N\\N=C(\\N)N[N+](=O)[O-]", "inhibition": "inactive: -1.6%"}
{"smiles": "CC1(CBr)Cn2c(nc3ccccc3c2=O)S1", "note": "(stereo unspecified)", "inhibition": "inactive: 0.97%"}
{"smiles": "O=C(OC1CN2CCC1CC2)c1ccc(Cl)cc1", "note": "(stereo unspecified)", "inhibition": "inactive: -2.3%"}
{"smiles": "CS(=O)(=O)c1ccc(Cl)c(NC(=O)COC(=O)C(O)(c2ccccc2)c2ccccc2)c1", "inhibition": "inactive: -1.6%"}
{"smiles": "COc1cc(C(=O)NCC2(N3CCOCC3)CCCCC2)cc(Cl)c1OC(C)C", "inhibition": "inactive: 8.41%"}
{"smiles": "O=[As](O)(O)c1cccnc1", "inhibition": "inactive: -2.24%"}
{"smiles": "O=[As](O)(c1cccc(O)c1)c1cccc(O)c1", "inhibition": "inactive: -4.35%"}
{"smiles": "Cc1cccc(OCC(=O)OC2CN3CCC2CC3)c1", "note": "(stereo unspecified)", "inhibition": "inactive: 1.12%"}
{"smiles": "Nc1cccc2c([As](=O)(O)O)cccc12", "inhibition": "inactive: -4.23%"}
{"smiles": "Cc1ccc(NCCc2c([N+](=O)[O-])cc([N+](=O)[O-])cc2[N+](=O)[O-])cc1", "inhibition": "inactive: -18.8%"}
{"smiles": "CCCOP(=S)(Nc1nc(N)cc(=O)[nH]1)OCCC", "inhibition": "inactive: 0.36%"}
{"smiles": "CCOP(=O)(Nc1cccc2ccccc12)OCC", "inhibition": "inactive: 0%"}
{"smiles": "COc1cc(C2NCCC3(OCCO3)C2(C)C)cc(OC)c1OC", "note": "(stereo unspecified)", "inhibition": "inactive: 0.05%"}
{"smiles": "O=P(Nc1nccs1)(Oc1ccccc1)Oc1ccccc1", "inhibition": "inactive: 3.97%"}
{"smiles": "CCOP1(=S)c2c(C)nn(CCC#N)c2N=C(c2ccccc2F)N1C", "note": "(stereo unspecified)", "inhibition": "inactive: -7.82%"}
{"smiles": "O=C(O)COc1ccc([As](=O)(O)O)cc1[N+](=O)[O-]", "inhibition": "inactive: -0.62%"}
{"smiles": "Nc1ccccc1[As](=O)(O)c1ccccc1", "inhibition": "inactive: 0.75%"}
{"smiles": "NC(=O)Nc1ccc([As](=O)(O)O)cc1", "inhibition": "inactive: -7%"}
{"smiles": "CN(C(=O)Cc1ccccc1)[C@@H]1CC[C@]2(CCCO2)C[C@H]1N1CCCC1", "inhibition": "inactive: 3.88%"}
{"smiles": "CCOP1(=S)c2c(C)nn(CCC#N)c2N=C(c2ccc(F)cc2)N1C", "note": "(stereo unspecified)", "inhibition": "inactive: -3.94%"}
{"smiles": "N#CCCN(C(=O)COC(=O)C(O)(c1ccccc1)c1ccccc1)c1ccc(F)cc1", "inhibition": "inactive: 2.07%"}
{"smiles": "CN(C(=O)Cc1ccc(Cl)c(Cl)c1)[C@H]1CC[C@@]2(CCCO2)C[C@@H]1N1CCCC1", "inhibition": "inactive: 1.09%"}
{"smiles": "CN(C)C(=O)c1cc([N+](=O)[O-])cc2c1-c1c(cc([N+](=O)[O-])cc1[N+](=O)[O-])C2=O", "inhibition": "inactive: -20.2%"}
{"smiles": "O=[N+]([O-])c1ccc2c(c1)nnn2O", "inhibition": "inactive: 3.92%"}
